Measured values taken from publication PMC9945734 (BMC Medicine, 2023).

How the values were obtained:
[1] = system: KLF5, KLF5^K369Q, and KLF5^K369R proteins; assay: Detection of KLF5-bound NTZ by HPLC
[2] = system: KLF5, KLF5^K369Q, and KLF5^K369R proteins; assay: Circular dichroism (CD) analysis; assay type: binding; conditions: negative peaks between 205 nm and 220 nm; all three forms of KLF5
Procedure: Wild-type or mutant KLF5 protein in 2 mL PBS at 0.01 mg/mL was analyzed using a CD spectropolarimeter (Chirascan, Applied Photophysics, Surrey, UK) at 200–260 nm. The spectra were recorded in a 1 cm path-length cuvette. An average of three repeated scans were performed on each spectrum. NTZ was added to the protein solution at a final concentration of 1 μM and incubated for 2 h at 4°C before CD detection.

## CC(=O)Oc1ccccc1C(=O)Nc1ncc([N+](=O)[O-])s1 [Nitazoxanide]
[1]
  binding to KLF5 protein (HPLC): binds to the KLF5 protein regardless of KLF5 acetylation status
[2]
  CD spectrum / secondary structure of KLF5 proteins: decreased the intensity of these negative peaks

## CC1(C)CCC(C)(C)c2cc(NC(=O)c3ccc(C(=O)O)cc3)ccc21 [Am80]
[2]
  CD spectrum / secondary structure of KLF5 proteins: did not change the secondary structure of KLF5
